The values below are quoted from earlier work in publication PMC4871277 (Biochemical pharmacology, 2015).

This data set deals with T1, HDAC8 (Homo sapiens, UniProt Q9BY41).
T1 sequence (Q9BY41 1-377): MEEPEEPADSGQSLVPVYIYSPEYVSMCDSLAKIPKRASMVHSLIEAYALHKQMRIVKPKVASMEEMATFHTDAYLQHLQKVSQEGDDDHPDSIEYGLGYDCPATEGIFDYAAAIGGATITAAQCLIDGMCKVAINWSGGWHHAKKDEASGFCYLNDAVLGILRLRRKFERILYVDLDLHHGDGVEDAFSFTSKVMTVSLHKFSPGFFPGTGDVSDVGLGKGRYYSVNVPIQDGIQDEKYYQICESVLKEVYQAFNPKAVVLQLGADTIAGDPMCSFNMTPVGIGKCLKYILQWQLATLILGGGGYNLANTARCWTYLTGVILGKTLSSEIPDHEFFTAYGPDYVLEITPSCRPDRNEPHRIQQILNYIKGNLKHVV
Conditions: read-out: Ki value HDAC8; determined at the authors' lab previously; cited from earlier work.

On to `O=C(CCCCCCC(=O)Nc1ccccc1)NO` [SAHA, suberanilohydroxamic acid], for which the Ki (usually the dissociation constant of the complex between target and ligand, obtained from inhibition or displacement) is 1 ± 0.2 nM.
